Assay results taken from patent US11760733B2, “Small molecule regulators of mitochondrial fusion and methods of use thereof” (Washington University, priority 2017, dated 2023).

Test system: Mfn1/Mfn2 double null MEFs
Test: Mitochondrial elongation in Mfn1/Mfn2 double null MEFs
Assay type: cell-based, mouse

**Q.** With `CC(Sc1nnc(C2CC2)n1-c1ccccc1)C(=O)Nc1sc2c(c1C(N)=O)CCC2` (stereo not shown) [compound B, 2-{2-[(5-cyclopropyl-4-phenyl-4H-1,2,4-triazol-3-yl)sulfanyl]propanamido}-4H,5H,6H-cyclopenta[b]thiophene-3-carboxamide] as the compound, how does the “mitochondrial elongation in absence of both mitofusins” value read?
**A.** Its value is “did not occur”.
